# NRP1-CendR mod – modulators of CendR peptide binding to human neuropilin-1; FAM-RPARPAR peptide binding to NRP-1, fluorescence polarization; inhibition, % at 25 µM; hit rate 0.85% among 360,000; AID 602438;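 active means inhibition or corrected inhibition above about 18%, plus a signal ratio from 0.5 to 1.5, limit read from the data, passing the limit was not always enough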
# MC4R barr agon – activates human MC4R beta-arrestin recruitment | hit rate 0.98% among 360,000 | activation, % at 8.9 µM | U2OS MC4R beta-arrestin complementation, luminescence; percent of melanotan II response, DMSO zero | P32245;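 active means activation above a per-plate cutoff, the mean activation of sample wells on that plate plus 3 SD, cut at about 8% in these data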
# ASAP1 GAP inh – ASAP1 ArfGAP inhibition | inhibition, % at 16.5 µM | AID 624377 | ASAP1-stimulated ARF1 GTP hydrolysis, GDP FP detection | hit rate 0.19% among 360,000 | Q9ULH1; in the data active means inhibition above about 25%;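 further: 0% = vehicle with enzyme and substrate and 100% = no enzyme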
# Yeast UUG start-1 – modulators of start codon recognition fidelity in yeast; AID 602363; hit rate 0.13% among 350,000; activity score, % at 18.7 µM; S. cerevisiae UUG-firefly luciferase reporter, luminescence/redox ratio;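 active = replicate mean at a twofold rise or more, about +100% in these data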;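 note: firefly luciferase made from a UUG start codon reports start codon fidelity; reporter light over untreated wells divided by growth signal over untreated wells; some hits fall short of that in this replicate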
# MC4R antagonist – antagonists of human melanocortin 4 receptor (MC4R) | P32245 | MC4R-expressing cells, MTII-stimulated cAMP, LANCE TR-FRET | inhibition, % at 6.5 µM | hit rate 0.48% among 360,000 | AID 540295;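 active means inhibition above its plate's cutoff, the mean of tested wells on that plate plus 3 SD, cut at about 29% in these data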;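 further: 0% = Melanotan II alone and 100% = Melanotan II plus saturating MCL0020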
#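 Material: U2OS-MC4R stable cell line | Reagent: Melanotan II challenge after compound preincubation | Doses: One concentration, 6.5 µM nominal | Incubation: 30-min compound preincubation, 1-h Melanotan II challenge, 1-h detection, room temperature | Signal: TR-FRET cAMP assay | Replicates: One well per compound, no replicates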
# ARFGAP1 inh – inhibits rat ARF GTPase activating protein 1; Q62848; Arfgap1-stimulated ARF1 GTP hydrolysis, GDP FP detection; inhibition, % at 16.5 µM; hit rate 0.26% among 360,000; AID 651572;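 active means inhibition above a per-plate limit, mean inhibition of low control wells plus 3 SD, cut at about 25% in these data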;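 further: 0% = DMSO wells with enzyme and 100% = wells lacking Arfgap1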
#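 System: truncated rat Arfgap1 GAP domain / Medium: HEPES-based buffer, pH 7.5 / Also added: N-terminally truncated human ARF1-GTP substrate / Incubation: enzyme reaction 120 min at 25 °C after 20 min preincubation / Measured by: FP of antibody-bound GDP Alexa 633 tracer, ex 620/em 688 nm / Replicates: singlicate, each compound tested once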
# Yeast UUG start-2 – modulators of start codon recognition fidelity in yeast; shares compounds with Yeast UUG start-1; S. cerevisiae UUG-start firefly luciferase, luminescence, 4 h; 100% means double the DMSO signal; activation, % at 38 µM; 540 tested, under 10 active;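 active means signal increase whose fitted curve reaches an absolute level of 40 at a concentration under 10 µM; inactive means activity opposite to the expected increase, or the rest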
# Active calls of the source: *; i = inactive; . = no result given. Rows were chosen to be rich in hits. Some 2.3% of all compounds tested hit in one or more screens of this group.
ARFGAP1 inh,ASAP1 GAP inh,MC4R barr agon,Yeast UUG start-2,Yeast UUG start-1,NRP1-CendR mod,MC4R antagonist,Molecule
.,.,.,.,6,.,.,COc1ccc(CN(C)C[C@H]2Oc3ccc(NC(=O)Nc4ccc(C(F)(F)F)cc4)cc3CC(=O)N([C@@H](C)CO)C[C@H]2C)cc1
.,.,.,i,191*,.,.,C[C@H](CO)N1C[C@H](C)[C@H](CN(C)C(=O)C2CCOCC2)Oc2cc(C#Cc3ccncc3)ccc2S1(=O)=O
.,.,.,i,129*,.,.,CNC[C@H]1Oc2cc(C#Cc3ccncc3)ccc2S(=O)(=O)N([C@H](C)CO)C[C@H]1C
.,.,.,.,-5,.,.,CNC[C@@H]1Oc2cc(C#Cc3ccncc3)ccc2S(=O)(=O)N([C@@H](C)CO)C[C@@H]1C
-18,5,-1,.,1,11,-1,CCOc1ccc(C(=O)NCC(C)C)cc1
8,-1,-1,10,109*,-5,6,CCOc1ccc(C(=O)NCC(C)NC(=O)c2ccc(OCC)cc2)cc1 (stereo unspecified)
.,.,.,.,6,.,.,COc1ccc(S(=O)(=O)Nc2ccc3c(c2)CC(=O)N([C@H](C)CO)C[C@H](C)[C@H](CN(C)Cc2ccc4c(c2)OCO4)O3)cc1
.,.,.,i,156*,.,.,CCCN(C)C[C@@H]1Oc2cc(C3=CCCCC3)ccc2S(=O)(=O)N([C@@H](C)CO)C[C@@H]1C
.,.,.,i,192*,.,.,C/C=C/c1ccc2c(c1)O[C@H](CN(C)Cc1ccc(C(=O)O)cc1)[C@H](C)CN([C@H](C)CO)S2(=O)=O
.,.,.,.,10,.,.,C[C@H]1CN([C@@H](C)CO)S(=O)(=O)c2ccc(C3=CCCCC3)cc2O[C@H]1CN(C)Cc1ccccc1
.,.,.,.,10,.,.,CCCN(C)C[C@H]1Oc2cc(/C=C/c3ccccc3)ccc2S(=O)(=O)N([C@H](C)CO)C[C@@H]1C
.,.,.,.,-8,.,.,C/C=C/c1ccc2c(c1)O[C@H](CN(C)C(=O)C1CC1)[C@H](C)CN([C@@H](C)CO)S2(=O)=O
.,.,.,.,7,.,.,C/C=C/c1ccc2c(c1)O[C@H](CN(C)Cc1ccc(C(=O)O)cc1)[C@@H](C)CN([C@H](C)CO)S2(=O)=O
.,.,.,i,85*,.,.,C/C=C/c1ccc2c(c1)O[C@@H](CN(C)CCC)[C@@H](C)CN([C@H](C)CO)S2(=O)=O
.,.,.,i,201*,.,.,C/C=C/c1ccc2c(c1)O[C@H](CN(C)C(=O)C1CCCCC1)[C@H](C)CN([C@H](C)CO)S2(=O)=O

# Some of the entries above, reformatted:
C[C@H]1CN([C@@H](C)CO)S(=O)(=O)c2ccc(C3=CCCCC3)cc2O[C@H]1CN(C)Cc1ccccc1
  ARFGAP1 inh = . | ASAP1 GAP inh = . | MC4R barr agon = . | Yeast UUG start-2 = . | Yeast UUG start-1 = 10 | NRP1-CendR mod = . | MC4R antagonist = .

CCCN(C)C[C@H]1Oc2cc(/C=C/c3ccccc3)ccc2S(=O)(=O)N([C@H](C)CO)C[C@@H]1C
  ARFGAP1 inh = . | ASAP1 GAP inh = . | MC4R barr agon = . | Yeast UUG start-2 = . | Yeast UUG start-1 = 10 | NRP1-CendR mod = . | MC4R antagonist = .

C/C=C/c1ccc2c(c1)O[C@H](CN(C)C(=O)C1CC1)[C@H](C)CN([C@@H](C)CO)S2(=O)=O
  ARFGAP1 inh = . | ASAP1 GAP inh = . | MC4R barr agon = . | Yeast UUG start-2 = . | Yeast UUG start-1 = -8 | NRP1-CendR mod = . | MC4R antagonist = .

C/C=C/c1ccc2c(c1)O[C@H](CN(C)Cc1ccc(C(=O)O)cc1)[C@@H](C)CN([C@H](C)CO)S2(=O)=O
  ARFGAP1 inh = . | ASAP1 GAP inh = . | MC4R barr agon = . | Yeast UUG start-2 = . | Yeast UUG start-1 = 7 | NRP1-CendR mod = . | MC4R antagonist = .

# (continued)
ARFGAP1 inh,ASAP1 GAP inh,MC4R barr agon,Yeast UUG start-2,Yeast UUG start-1,NRP1-CendR mod,MC4R antagonist,Molecule
.,.,.,.,7,.,.,O=C(Nc1ccc2c(c1)OCO2)N[C@H]1CC[C@H](CCNC(=O)C2CCOCC2)O[C@H]1CO
.,.,.,.,-7,.,.,CCCNC(=O)N[C@@H]1CC[C@H](CC(=O)NC2CCC2)O[C@H]1CO
-8,5,0,3,-5,10,7,Cc1c(C(=O)OCC(=O)c2ccc3c(c2)OCCO3)oc2ccccc12
.,.,.,.,-1,.,.,CN(C)C(=O)C[C@H]1C[C@@H]2c3cc(NC(=O)Nc4ccccc4F)ccc3O[C@@H]2[C@@H](CO)O1
.,.,.,i,127*,.,.,CN(C)C(=O)C[C@@H]1C[C@@H]2c3cc(NC(=O)Nc4ccccc4F)ccc3O[C@@H]2[C@@H](CO)O1
.,.,.,.,5,.,.,CN(C)CC(=O)Nc1ccc2c(c1)[C@@H]1C[C@@H](CC(=O)NCc3cccc(F)c3)O[C@H](CO)[C@@H]1O2
.,.,.,i,47*,.,.,CN(C)C(=O)C[C@@H]1C[C@H]2c3cc(NC(=O)Nc4ccccc4F)ccc3O[C@H]2[C@H](CO)O1
.,.,.,i,55*,.,.,CN(C)CC(=O)Nc1ccc2c(c1)[C@@H]1C[C@@H](CC(=O)NCc3cccc(F)c3)O[C@@H](CO)[C@@H]1O2
.,.,.,.,-1,.,.,CN(C)C(=O)C[C@H]1C[C@H]2c3cc(NC(=O)Nc4ccccc4F)ccc3O[C@H]2[C@H](CO)O1
0,1,0,-32,321*,4,16,Cc1ccc(C(=O)NCCSC(C)(C)C)cc1
-6,0,0,.,-19,0,-4,COc1ccc(N2CCN(CCC3Oc4cc([N+](=O)[O-])ccc4NC3=O)CC2)cc1 (stereo unspecified)
2,15,1,6,611*,-2,-3,O=C1Nc2ccc([N+](=O)[O-])cc2OC1CCN1CCN(Cc2ccc3c(c2)OCO3)CC1 (stereo unspecified)
7,2,-1,8,.,2,-2,O=C1Nc2ccc([N+](=O)[O-])cc2OC1CCN1CCN(Cc2ccccc2)CC1 (stereo unspecified)
-6,7,-1,5,-21,2,13,CCN1CCN(CCC2Oc3cc([N+](=O)[O-])ccc3NC2=O)CC1 (stereo unspecified)
-7,7,-2,.,-6,4,4,O=Cc1cc([N+](=O)[O-])ccc1N1CCN(Cc2ccc3c(c2)OCO3)CC1

# Additional results.
ARFGAP1 inh,ASAP1 GAP inh,MC4R barr agon,Yeast UUG start-2,Yeast UUG start-1,NRP1-CendR mod,MC4R antagonist,Molecule
.,.,.,.,2,.,.,C[C@H]1CN([C@@H](C)CO)C(=O)c2cc(C#CCc3ccccc3)cnc2O[C@H]1CN(C)C(=O)C1CC1
.,.,.,i,154*,.,.,O=C(Nc1ccccc1F)N[C@H]1CC[C@H](CCNS(=O)(=O)c2ccc(F)cc2)O[C@H]1CO
.,.,.,.,2,.,.,Cc1ccc(S(=O)(=O)N[C@@H]2CC[C@H](CCNS(=O)(=O)Cc3ccccc3)O[C@@H]2CO)cc1
.,.,.,i,148*,.,.,Cc1ccc(S(=O)(=O)N[C@H]2CC[C@H](CCNS(=O)(=O)Cc3ccccc3)O[C@@H]2CO)cc1
.,.,.,.,0,.,.,O=C(NCC[C@H]1CC[C@H](NS(=O)(=O)c2cccc(F)c2)[C@H](CO)O1)C1CCCC1
.,.,.,i,145*,.,.,O=C(NCC[C@@H]1CC[C@H](NS(=O)(=O)c2cccc(F)c2)[C@H](CO)O1)C1CCCC1
1,-9,-1,.,0,5,1,CC(C)C[C@@H](CN)NC(=O)c1nc[nH]c1C(=O)N[C@@H](Cc1ccccc1)C(=O)CNC[C@H](C)NC(=O)c1nc[nH]c1C(=O)N[C@@H](C)C(=O)O
2,0,1,.,3,-3,-3,CC(C)C[C@@H](CNCC(=O)[C@H](C)NC(=O)c1[nH]cnc1C(=O)N[C@@H](C)CN)NC(=O)c1nc[nH]c1C(=O)N[C@@H](Cc1ccccc1)C(=O)O
3,8,-1,14,135*,4,3,CC(C)C[C@@H](CNCC(=O)[C@H](CC(C)C)NC(=O)c1[nH]cnc1C(=O)N[C@@H](C)CN)NC(=O)c1nc[nH]c1C(=O)N[C@@H](C)C(=O)O
-7,4,-1,-1,166*,-6,4,CC(C)C[C@@H](CN)NC(=O)c1nc[nH]c1C(=O)N[C@@H](Cc1c[nH]c2ccccc12)C(=O)CNC[C@H](C)NC(=O)c1nc[nH]c1C(=O)N[C@@H](C)C(=O)O
